Test results from ChEMBL document CHEMBL1152560, “Substituted 2-arylbenzothiazoles as kinase inhibitors: hit-to-lead optimization” (Bioorg Med Chem, 2009).

Chains of the proteins cited; added tags and fusions are not shown.
UniProt P00533, whole entry: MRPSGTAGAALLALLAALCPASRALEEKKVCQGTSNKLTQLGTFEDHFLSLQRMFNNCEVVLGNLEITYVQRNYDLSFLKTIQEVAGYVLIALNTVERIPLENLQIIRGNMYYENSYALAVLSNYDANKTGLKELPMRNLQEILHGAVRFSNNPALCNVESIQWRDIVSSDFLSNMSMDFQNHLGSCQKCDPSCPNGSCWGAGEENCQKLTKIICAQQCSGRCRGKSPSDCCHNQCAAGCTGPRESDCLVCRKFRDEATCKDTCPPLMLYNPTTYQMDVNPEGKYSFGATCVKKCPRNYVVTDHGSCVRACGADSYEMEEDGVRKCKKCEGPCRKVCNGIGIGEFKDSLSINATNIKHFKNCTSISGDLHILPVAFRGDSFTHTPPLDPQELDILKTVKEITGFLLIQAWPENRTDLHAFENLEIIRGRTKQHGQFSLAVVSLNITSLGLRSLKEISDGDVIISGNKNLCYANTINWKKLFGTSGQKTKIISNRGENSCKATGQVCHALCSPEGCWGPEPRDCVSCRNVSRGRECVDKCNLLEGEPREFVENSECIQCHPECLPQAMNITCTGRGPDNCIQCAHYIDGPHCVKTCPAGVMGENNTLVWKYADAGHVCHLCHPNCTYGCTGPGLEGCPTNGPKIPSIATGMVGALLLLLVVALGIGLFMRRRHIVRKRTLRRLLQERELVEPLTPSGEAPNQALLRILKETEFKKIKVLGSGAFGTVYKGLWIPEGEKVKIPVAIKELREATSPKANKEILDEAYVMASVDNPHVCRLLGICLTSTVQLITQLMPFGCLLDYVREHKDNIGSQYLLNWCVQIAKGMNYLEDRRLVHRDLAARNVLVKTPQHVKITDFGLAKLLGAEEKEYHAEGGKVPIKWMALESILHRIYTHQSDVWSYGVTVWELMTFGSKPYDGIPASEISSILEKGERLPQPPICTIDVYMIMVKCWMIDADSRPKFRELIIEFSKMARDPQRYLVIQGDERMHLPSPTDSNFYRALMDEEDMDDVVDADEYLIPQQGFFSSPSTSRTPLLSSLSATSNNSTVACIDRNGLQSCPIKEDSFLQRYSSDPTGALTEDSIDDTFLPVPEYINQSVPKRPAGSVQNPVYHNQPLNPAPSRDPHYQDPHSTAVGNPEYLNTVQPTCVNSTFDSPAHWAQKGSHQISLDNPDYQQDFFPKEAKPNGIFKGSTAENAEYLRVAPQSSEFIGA

Target: Epidermal growth factor receptor (Homo sapiens, UniProt P00533)
Test: Inhibition of wild type EGF-R by microplate scintillation counting

IC50 [nM] | SMILES
670 | COc1cc2ncnc(Nc3ccc(-c4nc5ccccc5s4)cc3)c2cc1OCCCN1CCN(C)CC1
250 | COc1cc2c(Nc3ccc(-c4nc5ccccc5s4)cc3C)ncnc2cc1OCCCN1CCN(C)CC1
